Patent US20130309753

Assays:
protein C = protein C (UniProt P04070)
fibrinogen = fibrinogen (UniProt P02671)
[1] = molecular target: protease-activated receptor PAR1 (UniProt P25116)

Substance: thrombin mutant EDE (E14eA/D14lA/E18A), auto-activated
- kcat/Km for activation of protein C in the presence of 50 nM thrombomodulin and 5 mM CaCl2 (protein C): 110000 M⁻¹ s⁻¹
- kcat/Km for release of fibrinopeptide A (FpA) from fibrinogen (fibrinogen): 7.2e+06 M⁻¹ s⁻¹
- kcat/Km for cleavage of PAR1 [1]: 9.1e+06 M⁻¹ s⁻¹

Substance: thrombin mutant EDEWE (E14eA/D14lA/E18A/W215A/E217A), auto-activated
- kcat/Km for activation of protein C in the presence of 50 nM thrombomodulin and 5 mM CaCl2 (protein C): 31000 M⁻¹ s⁻¹
- kcat/Km for release of fibrinopeptide A (FpA) from fibrinogen (fibrinogen): 260 M⁻¹ s⁻¹
- kcat/Km for cleavage of PAR1 [1]: 16000 M⁻¹ s⁻¹

Substance: wild type human thrombin
- kcat/Km for activation of protein C in the presence of 50 nM thrombomodulin and 5 mM CaCl2 (protein C): 220000 M⁻¹ s⁻¹
- kcat/Km for release of fibrinopeptide A (FpA) from fibrinogen (fibrinogen): 1.7e+07 M⁻¹ s⁻¹
- kcat/Km for cleavage of PAR1 [1]: 2.7e+07 M⁻¹ s⁻¹
